From patent US12202849B2, “Crystalline forms of tenofovir alafenamide” (Gilead Sciences, Inc., priority 2017, dated 2025)

settings: deionized water, approximately 22° C., room temperature

Structure (SMILES)	Solubility
CC(C)OC(=O)C(C)NP(=O)(COC(C)Cn1cnc2c(N)ncnc21)Oc1ccccc1.O=C(O)c1ccc2ccccc2c1O.O=C(O)c1ccc2ccccc2c1O (stereo not drawn) [TAF Bis-xinafoate, Tenofovir Alafenamide Bis-Xinafoate]	200 µg/mL
CC(C)OC(=O)[C@H](C)N[P@](=O)(CO[C@H](C)Cn1cnc2c(N)ncnc21)Oc1ccccc1.CC(C)OC(=O)[C@H](C)N[P@](=O)(CO[C@H](C)Cn1cnc2c(N)ncnc21)Oc1ccccc1.O=C(O)c1cc2ccccc2c(Cc2c(O)c(C(=O)O)cc3ccccc23)c1O [TAF Hemipamoate, Tenofovir Alafenamide Hemipamoate]	150 µg/mL
CC(C)OC(=O)C(C)NP(=O)(COC(C)Cn1cnc2c(N)ncnc21)Oc1ccccc1.O=C(O)c1cc(=O)[nH]c(=O)[nH]1 (stereo not drawn) [TAF Orotate, Tenofovir Alafenamide Orotate]	1700 µg/mL
